Assay results taken from US10214520B2, “Substituted azaspiro(4.5)decane derivatives” (priority 2014, dated 2019).
Where two headings read alike, the source gives them in different places.

Sequences of proteins named here, by UniProt entry; tags and fusion partners are left off. A change or cut given only in a name is not applied to a line headed by its entry.
UniProt P35372, whole entry, looked up: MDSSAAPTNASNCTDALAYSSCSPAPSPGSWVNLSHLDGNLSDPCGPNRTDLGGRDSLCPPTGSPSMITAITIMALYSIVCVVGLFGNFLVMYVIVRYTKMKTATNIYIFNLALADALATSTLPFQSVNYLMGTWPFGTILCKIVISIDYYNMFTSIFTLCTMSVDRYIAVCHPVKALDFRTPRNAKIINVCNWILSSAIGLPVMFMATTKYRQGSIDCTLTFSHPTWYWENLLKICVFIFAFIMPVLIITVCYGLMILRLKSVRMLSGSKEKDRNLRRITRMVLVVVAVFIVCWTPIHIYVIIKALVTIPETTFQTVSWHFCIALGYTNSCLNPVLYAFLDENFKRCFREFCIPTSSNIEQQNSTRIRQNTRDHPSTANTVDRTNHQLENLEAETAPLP
UniProt P41146: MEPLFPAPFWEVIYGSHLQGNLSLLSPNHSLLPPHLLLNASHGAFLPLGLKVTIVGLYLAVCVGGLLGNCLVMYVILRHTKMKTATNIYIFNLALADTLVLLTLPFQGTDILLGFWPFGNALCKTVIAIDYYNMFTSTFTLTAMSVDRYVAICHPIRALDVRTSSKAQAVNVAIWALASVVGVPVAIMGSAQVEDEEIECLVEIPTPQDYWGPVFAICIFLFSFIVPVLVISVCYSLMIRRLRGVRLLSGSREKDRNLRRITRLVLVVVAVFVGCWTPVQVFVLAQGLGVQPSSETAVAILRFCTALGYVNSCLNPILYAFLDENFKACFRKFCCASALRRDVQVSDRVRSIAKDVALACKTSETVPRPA

Key:
[1] = system: Female Sprague Dawley rats; assay: Analgesia in the tail flick (focal ray) test in rats, intravenous administration
human μ opiate receptor = human μ opiate receptor (Homo sapiens, UniProt P35372); assay: μ opiate receptor binding assay with [3H]-naloxone, membrane preparation of CHO-K1 cells (WGA-SPA beads); conditions: for % inhibition (μ) [1 μM] / MOP % Inhibition @1 μM: test concentration 1 μM
ORL1 receptor = ORL1 receptor (Homo sapiens, UniProt P41146); conditions: for % inhibition (ORL1) [1 μM] / ORL1 % Inhibition @ 1 μM: test concentration 1 μM
[2] = read-out: Ki (μ) mean [μm], mean
[3] = read-out: Ki (ORL1) mean [μm], mean

SMILES | Tail flick rat, i.v. % MPE (@μg/kg) ([1]; @100 μg/kg) [%@100 % MPE] | Ki (human μ opiate receptor; [2]) [nM] | % inhibition (μ) [1 μM] (human μ opiate receptor) [%] | Ki (ORL1 receptor; [3]) [nM] | % inhibition (ORL1) [1 μM] (ORL1 receptor) [%] | also measured
CN(C)C1(c2ccccc2)CCC2(CCN(Cc3ccccn3)C2)CC1 (stereo not shown) | 0 | 10.2 | 94 | 8 | 86.5 | –
CN(C)C1(c2ccc(Cl)s2)CCC2(CCN(Cc3ccccc3)C2)CC1 (stereo not shown) | 0 | 1.3 | 100 | 4.95 | 94.5 | –
CN(C)C1(c2cccs2)CCC2(CCN(Cc3ccncc3)C2)CC1 (stereo not shown) | – | 6.8 | 98 | 29 | 78 | Tail flick rat, i.v. % MPE (@μg/kg) ([1]; @1000 μg/kg): 15%@1000 % MPE
Cc1ccc(C2(N(C)C)CCC3(CCN(Cc4ccncc4)C3)CC2)s1 (stereo not shown) | – | 28 | 90 | 39.5 | 74 | Tail flick rat, i.v. % MPE (@μg/kg) ([1]; @1000 μg/kg): 0%@1000 % MPE
CN(C)C1(c2ccc(F)s2)CCC2(CCN(C(=O)c3ccccc3)C2)CC1 (stereo not shown) | – | 58 | 90.5 | 26 | 86 | Tail flick rat, i.v. ED50rat [μg/kg] [1]: 165 µg/kg
CN(C)C1(c2ccccc2)CCC2(CCN(Cc3ccccc3)C2)CC1 (stereo not shown) | 0 | 2.45 | 99.5 | 1.29 | 91 | –
CN(C)C1(c2cccs2)CCC2(CCN(C(=O)c3ccccc3)C2)CC1 (stereo not shown) | – | 20 | 95 | 21 | 84.5 | Tail flick rat, i.v. ED50rat [μg/kg] [1]: 77 µg/kg; SNL rat, i.v. % MPE (@μg/kg) (Male Sprague Dawley rats; @68.1 μg/kg): 16%@68.1 % MPE
Cc1ccc(C2(N(C)C)CCC3(CCN(Cc4cccnc4)C3)CC2)s1 (stereo not shown) | – | 12.9 | 95.5 | 11.7 | 84 | Tail flick rat, i.v. ED50rat [μg/kg] [1]: 638 µg/kg; SNL rat, i.v. % MPE (@μg/kg) (Male Sprague Dawley rats; @464 μg/kg): 36%@464 % MPE
CN(C)C1(c2cccs2)CCC2(CCN(Cc3cncnc3)C2)CC1 (stereo not shown) | – | 11.5 | 96 | 17.5 | 84.5 | Tail flick rat, i.v. % MPE (@μg/kg) ([1]; @1000 μg/kg): 23%@1000 % MPE
CCNC(=O)N1CCC2(CCC(c3cccs3)(N(C)C)CC2)C1 (stereo not shown) | 30 | 3.9 | 99 | 44 | 68.5 | –
Cc1ccc(C2(N(C)C)CCC3(CCN(Cc4ccccc4)C3)CC2)s1 (stereo not shown) | 0 | 1.84 | 99.5 | 3.03 | 98.5 | –
CN(C)C1(c2cccs2)CCC2(CCN(Cc3cccnc3)C2)CC1 (stereo not shown) | – | 12 | 97 | 12.5 | 90 | Tail flick rat, i.v. ED50rat [μg/kg] [1]: 1250 µg/kg; SNL rat, i.v. % MPE (@μg/kg) (Male Sprague Dawley rats; @1000 μg/kg): 59.5%@1000 % MPE
CN(C)C1(C(=O)c2ccccc2)CCC2(CCN(Cc3ccccc3)C2)CC1 (stereo not shown) | – | – | 81.5 | – | 54.5 | –
CN(C)C1(c2ccccc2)CCC2(CC1)CC(=O)N(CCC1(C(=O)OC(C)(C)C)CCS(=O)(=O)CC1)C2 (stereo not shown) | – | – | – | – | – | Ki (human μ opiate receptor; read-out: MOP Ki): 1.4 nM; MOP % Inhibition @1 μM (human μ opiate receptor): 100%; Ki (ORL1 receptor; read-out: ORL1 Ki): 142 nM; ORL1 % Inhibition @ 1 μM (ORL1 receptor): 54%
CN(C)[C@]1(c2ccccc2)CC[C@]2(CC1)CC(=O)N(CCC(C)(C)C(=O)O)C2 | – | – | – | – | – | Ki (human μ opiate receptor; read-out: MOP Ki): 117 nM; MOP % Inhibition @1 μM (human μ opiate receptor): 85%; Ki (ORL1 receptor; read-out: ORL1 Ki): 69 nM; ORL1 % Inhibition @ 1 μM (ORL1 receptor): 79%
